## Curated experimental data: melting point values

Melting points are in °C.
"–" marks a cell with nothing listed here.
The databases behind each value are named after "via".

compound | name | mp (°C) | via
Cl.O=C(CCN1CCCCC1)c1ccccc1 | 3-Piperidinopropiophenone hydrochloride | 212 | OCHEM
c1ccc2c(c1)NCCCS2 | 2,3,4,5-tetrahydro-1,5-benzothiazepine | 23 | OCHEM
Cc1ccc2c(CCl)cc(=O)oc2c1 | 4-Chloromethyl-7-methyl-chromen-2-one | 171 | OCHEM
Cc1ccc(N2C(=O)Cc3ccccc3C2=O)cc1 | 2-(4-Methylphenyl)isoquinoline-1,3(2H,4H)-dione | 174 | OCHEM
CC(C)CCC(=O)c1ccccc1 | 4-Methyl-1-phenylpentan-1-one | -2 | OCHEM
O=C(O)CCn1cccn1 | 3-(1H-pyrazol-1-yl)propanoic acid | 77 | OCHEM
Cc1cc(C=O)c(C)n1-c1cccc(C(F)(F)F)c1 | – | 104 | OCHEM
Cc1cc(N)n(CCO)n1 | 2-(5-Amino-3-methyl-1H-pyrazol-1-yl)ethan-1-ol | 50 | OCHEM
CC(C)C(=O)N1CCC(C(=O)O)CC1 | 1-(2-Methylpropanoyl)piperidine-4-carboxylic acid | 103 | OCHEM
Clc1cccc(Cl)c1Oc1ccccc1 | 2,6-Dichlorodiphenyl ether | 39 | QSARDB
CC(=O)N[C@H]1[C@H](OC(C)=O)O[C@H](COC(C)=O)[C@@H](OC(C)=O)[C@@H]1OC(C)=O | – | 186.5 | OCHEM
ClCc1noc(-c2ccc(Cl)cc2)n1 | 3-(Chloromethyl)-5-(4-chlorophenyl)-1,2,4-oxadiazole | 80 | OCHEM
CCOC(=O)c1ccc(-c2ccc(C=O)o2)cc1 | Ethyl 4-(5-formyl-2-furyl)benzoate | 111 | OCHEM
N#CCC(=O)N1CCN(c2ccccc2)CC1 | 3-Oxo-3-(4-phenylpiperazin-1-yl)propanenitrile | 133 | OCHEM
O=C(c1cc2ccccc2cc1O)N1CCOCC1 | 3-(morpholin-4-ylcarbonyl)-2-naphthol | 217 | OCHEM
O=C(O)CCNc1ccccc1[N+](=O)[O-] | 3-[(2-nitrophenyl)amino]propanoic acid | 145 | OCHEM
N#CC1(NC(=O)CCl)CCCCC1 | 2-chloro-N-(1-cyanocyclohexyl)acetamide | 131 | OCHEM
O=C(O)C1(c2ccc(F)cc2)CC1 | 1-(4-fluorophenyl)cyclopropanecarboxylic acid | 127 | OCHEM
O=C(O)C1CCS(=O)(=O)C1 (configuration not stated) | tetrahydrothiophene-3-carboxylic acid 1,1-dioxide | 136 | OCHEM
O=C(O)CCNc1ccccc1 | N-Phenyl-beta-alanine | 58 | OCHEM
CCn1c(-c2cccs2)n[nH]c1=S | 4-Ethyl-5-thiophen-2-yl-4H-[1,2,4]triazole-3-thiol | 104 | OCHEM
NS(=O)(=O)c1ccc(=S)[nH]c1 | 6-Sulfanylidene-1,6-dihydropyridine-3-sulfonamide | 243 | OCHEM
OCC1(O)COC(O)(CO)CO1 (configuration not stated) | 1,3-Dihydroxyacetone dimer | 78.5 | OCHEM
c1ccc2c(c1)ccc1c3ccccc3c3ccccc3c21 | Benzo(g)chrysene | 114.5 | PubChem
CC(=O)c1ccc(-n2cnc3ccccc32)cc1 | 1-[4-(1H-Benzimidazol-1-yl)phenyl]ethan-1-one | 136 | OCHEM
COc1cccc(NCCC(=O)O)c1 | N-(3-Methoxyphenyl)-beta-alanine | 88 | OCHEM
Cc1ccccc1S(=O)(=O)O | 2-Methylbenzenesulfonic acid | 67.5 | OCHEM
CC(C)CN(CC(C)C)C(=O)CC(=O)N(CC(C)C)CC(C)C | N,N,N',N'-Tetraisobutyl-malonamide | 52 | OCHEM
CCOC(=O)c1sc(-c2ccc(Br)cc2)cc1N | Ethyl 3-amino-5-(4-bromophenyl)thiophene-2-carboxylate | 106 | OCHEM
O=C(O)CNC(=O)C12CC3CC(CC(C3)C1)C2 | N-(Tricyclo[3.3.1.1~3,7~]decane-1-carbonyl)glycine | 146 | OCHEM
O=C([O-])c1cc(S(=O)(=O)[O-])ccc1/N=N/[C-](/N=N/c1cc(S(=O)(=O)O)cc(Nc2nc(Cl)nc(Nc3cc(S(=O)(=O)[O-])c(Nc4nc(Cl)nc(Nc5cccc(S(=O)(=O)[O-])c5)n4)cc3S(=O)(=O)[O-])n2)c1[O-])c1ccccc1.[Cu+2].[Na+].[Na+].[Na+].[Na+].[Na+] | – | 170 | eChemPortal
O=C(O)c1ccc2c(c1)C(=O)N(C1CCCCC1)C2=O | – | 194 | OCHEM
COc1cc([N+](=O)[O-])cc2sc(N)nc12 | 4-methoxy-6-nitro-1,3-benzothiazol-2-amine | 280 | OCHEM
COc1ccc2nc(C)c(C(=O)O)cc2c1 | 6-methoxy-2-methylquinoline-3-carboxylic acid | 222 | OCHEM
Cc1cc(C)c2c(c1)NC(=O)C2=O | 4,6-dimethyl-1H-indole-2,3-dione | 234 | OCHEM
CCNC(=O)CCCl | 3-chloro-N-ethylpropanamide | 65 | OCHEM
O=Cc1cnn(-c2ccc(Br)cc2)c1 | 1-(4-bromophenyl)-1H-pyrazole-4-carbaldehyde | 125 | OCHEM
Cc1cc(=O)n2c([nH]c3ccccc32)c1C#N | – | 271 | OCHEM
O=[N+]([O-])C(Br)=Cc1ccccc1 | beta-Bromo-beta-nitrostyrene | 68.06 | PubChem
COc1cc(NC(=O)Cc2cccs2)c(C(=O)O)cc1OC | 4,5-Dimethoxy-2-[2-(thiophen-2-yl)acetamido]benzoic acid | 196 | OCHEM
Cc1nnnn1-c1cccc(N)c1 | 3-(5-methyl-1H-tetrazol-1-yl)aniline | 122 | OCHEM
Nc1cc(Cl)ccc1-n1cncn1 | 5-chloro-2-(1H-1,2,4-triazol-1-yl)aniline | 95 | OCHEM
N#CCCC(=O)c1ccco1 | 4-(2-furyl)-4-oxobutanenitrile | 82 | OCHEM
CCOc1ccc(Nc2ncccc2C(=O)O)cc1 | 2-[(4-ethoxyphenyl)amino]nicotinic acid | 190 | OCHEM
NNc1ccc([N+](=O)[O-])cn1 | 2-hydrazino-5-nitropyridine | 195 | OCHEM
O=C(O)c1ccc2c3c(ccc(C(=O)O)c13)C(=O)OC2=O | 1,3-Dioxo-1H,3H-naphtho[1,8-cd]pyran-6,7-dicarboxylic acid | 196 | eChemPortal
NC(=O)Nc1ccc(C(=O)O)cc1 | Benzoic acid, p-ureido- | 297 | OCHEM
Cc1cccc(-c2nc(CC(=O)O)cs2)c1 | [2-(3-methylphenyl)-1,3-thiazol-4-yl]acetic acid | 111 | OCHEM
Cc1n[nH]c(C)c1S(=O)(=O)Cl | 3,5-Dimethyl-1H-pyrazole-4-sulfonyl chloride | 62.5 | OCHEM

A selection of 7 entries from above:

| compound | name | mp (°C) | via |
|---|---|---|---|
| Clc1cccc(Cl)c1Oc1ccccc1 | 2,6-Dichlorodiphenyl ether | 39 | QSARDB |
| COc1cccc(NCCC(=O)O)c1 | N-(3-Methoxyphenyl)-beta-alanine | 88 | OCHEM |
| COc1cc([N+](=O)[O-])cc2sc(N)nc12 | 4-methoxy-6-nitro-1,3-benzothiazol-2-amine | 280 | OCHEM |
| CCOC(=O)c1sc(-c2ccc(Br)cc2)cc1N | Ethyl 3-amino-5-(4-bromophenyl)thiophene-2-carboxylate | 106 | OCHEM |
| Cc1cc(=O)n2c([nH]c3ccccc32)c1C#N | – | 271 | OCHEM |
| CC(C)CN(CC(C)C)C(=O)CC(=O)N(CC(C)C)CC(C)C | N,N,N',N'-Tetraisobutyl-malonamide | 52 | OCHEM |
| OCC1(O)COC(O)(CO)CO1 (configuration not stated) | 1,3-Dihydroxyacetone dimer | 78.5 | OCHEM |

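The numbers are reported measurements, compiled and curated for the OPERA QSAR suite. One number stands for a compound and property, with no spread given. Conditions of the individual experiments are not part of the data. The measured form (salt, isomer or mixture) is not always the one drawn. Some upstream entries may be estimates or bounds without being marked so.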

Data: OPERA 2.9 data sets, kmansouri/OPERA on GitHub.